Laboratory results from publication PMC7938888, “Antidepressant drugs act by directly binding to TRKB neurotrophin receptors” (Cell, 2021).

Protein sequences, listed by entry. Tags and fused reporters are not part of them. Residues count along the entry.
UniProt P15209, 32-821 limits assumed: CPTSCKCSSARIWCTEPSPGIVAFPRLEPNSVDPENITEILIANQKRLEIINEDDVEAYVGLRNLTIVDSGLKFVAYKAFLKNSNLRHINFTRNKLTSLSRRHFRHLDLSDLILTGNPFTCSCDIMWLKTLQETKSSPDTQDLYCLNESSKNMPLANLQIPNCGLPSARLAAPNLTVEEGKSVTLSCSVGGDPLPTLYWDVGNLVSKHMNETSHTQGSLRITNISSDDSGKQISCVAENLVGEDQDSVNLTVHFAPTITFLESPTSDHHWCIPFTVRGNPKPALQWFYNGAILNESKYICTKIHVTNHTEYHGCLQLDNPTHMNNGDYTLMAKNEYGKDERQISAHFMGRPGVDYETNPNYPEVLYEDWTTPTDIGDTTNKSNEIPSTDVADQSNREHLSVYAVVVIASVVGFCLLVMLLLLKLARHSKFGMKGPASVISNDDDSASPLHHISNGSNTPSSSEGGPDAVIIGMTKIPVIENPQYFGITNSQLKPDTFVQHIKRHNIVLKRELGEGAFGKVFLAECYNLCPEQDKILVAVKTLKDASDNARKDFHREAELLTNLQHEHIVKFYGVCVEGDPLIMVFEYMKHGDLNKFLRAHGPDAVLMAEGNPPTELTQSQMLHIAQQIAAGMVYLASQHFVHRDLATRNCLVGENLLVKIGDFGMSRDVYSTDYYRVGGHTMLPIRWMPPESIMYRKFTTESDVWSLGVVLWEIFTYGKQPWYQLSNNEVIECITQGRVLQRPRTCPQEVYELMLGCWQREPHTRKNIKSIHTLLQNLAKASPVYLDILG

Biological target: TRKB (Mus musculus, UniProt P15209)
Test: Cell-free ligand binding assay on immobilised TRKB from HEK293T lysates
Settings: read-out: Kd of tritiated imipramine binding to TRKB; tritiated imipramine 0-30 μM, scintillation; tested as the radiolabelled form

CN(C)CCCN1c2ccccc2CCc2ccccc21 [imipramine]
Kd: 1430 nM
